Experiments:
[1] = test system: Methanosarcina thermophila; test: Activation of Methanosarcina thermophila Zinc(2)-derived gamma-class CA by stopped-flow CO2 hydrase assay
[2] = test system: Methanosarcina thermophila; test: Activation of Methanosarcina thermophila cobalt(2)-derived gamma-class CA by stopped-flow CO2 hydrase assay
[3] = test system: Methanothermobacter thermautotrophicus; test: Activation of Methanobacterium thermoautotrophicum beta-class CA by stopped-flow CO2 hydrase assay
[4] = biological target: Carbonic anhydrase 3 (Homo sapiens) (UniProt P07451); test: Activation of human recombinant CA3 by stopped-flow CO2 hydrase assay
[5] = biological target: Carbonic anhydrase 2 (Homo sapiens) (UniProt P00918); test: Activation of human recombinant CA2 by stopped-flow CO2 hydrase assay
[6] = biological target: Carbonic anhydrase 1 (Homo sapiens) (UniProt P00915); test: Activation of human recombinant CA1 by stopped-flow CO2 hydrase assay

Chains of the proteins cited; added tags and fusions are not shown. Lines headed by an entry give the natural chain unless they say otherwise; changes in a name come on top.
UniProt P07451: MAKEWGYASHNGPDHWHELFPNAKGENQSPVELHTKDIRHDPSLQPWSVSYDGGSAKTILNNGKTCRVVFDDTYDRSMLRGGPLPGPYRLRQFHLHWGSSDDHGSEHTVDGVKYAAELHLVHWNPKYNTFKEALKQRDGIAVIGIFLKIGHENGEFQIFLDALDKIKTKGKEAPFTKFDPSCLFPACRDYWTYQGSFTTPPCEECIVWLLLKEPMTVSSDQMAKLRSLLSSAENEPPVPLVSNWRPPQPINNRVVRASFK
UniProt P00915: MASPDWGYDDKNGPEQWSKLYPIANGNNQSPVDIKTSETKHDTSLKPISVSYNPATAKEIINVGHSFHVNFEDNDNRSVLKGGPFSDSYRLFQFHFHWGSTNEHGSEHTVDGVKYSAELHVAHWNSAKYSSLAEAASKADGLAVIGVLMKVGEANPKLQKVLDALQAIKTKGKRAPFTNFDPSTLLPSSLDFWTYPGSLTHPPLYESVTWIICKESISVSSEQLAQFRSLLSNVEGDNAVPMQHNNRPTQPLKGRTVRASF

Row | SMILES | KA [1] [µM] | KA [2] [µM] | KA [3] [µM] | KA [4] [µM] | KA [5] [µM] | KA [6] [µM]
1 | N[C@@H](Cc1ccccc1)C(=O)O | 68 | 70 | 70 | 34.7 | – | –
2 | N[C@H](Cc1ccccc1)C(=O)O | 42 | 24 | 10.3 | 15.4 | 86 | 0.035
